Source: patent US8410309B2, “Phenoxy carboxylic acid compounds and compositions for delivering active agents” (Emisphere Technologies, Inc., priority 1999, dated 2013)

Experiment: Insulin oral delivery, serum human insulin by ELISA
Conditions: previous experiments, no delivery agent compound
Experimental: Oral dosing (PO) compositions of delivery agent compound and human zinc insulin (minimum 26 IU/mg available from Calbiochem—Novabiochem Corp, La Jolla, Calif.) were prepared in deionized water. […] The pH was adjusted to about 7 to 8.5 with NaOH or HCl. […] The final delivery agent compound dose, insulin dose and dose volume amounts are listed below in Table 8.
The typical dosing and sampling protocols were as follows.
Serum insulin levels were determined with an Insulin ELISA Test Kit (Kit # DSL-10-1600 from Diagnostic Systems Laboratories, Inc., Webster, Tex.), modifying the standard protocol in order to optimize the sensitivity and linear range of the standard curve for the volumes and concentrations of the samples used in the present protocol. […] The five values for each time point were averaged and the results plotted as serum insulin concentration versus time.

Substance: human insulin [reference compound]
- levels of human insulin following oral dosing with human insulin alone: no measurable levels
